Literature values as cited in publication PMC5964550 (Contrast Media & Molecular Imaging, 2018).

What was measured:
[1] = test system: human organic cation transporter 1 (OCT1, SLC22A1); conditions: in vitro; cited from earlier work
[2] = test system: breast cancer resistance protein (ABCG2); conditions: cited from earlier work
[3] = test system: P-gp; conditions: cited from earlier work

Compound: CCN(CC)CCNC(=O)c1cc(Cl)c(N)cc1OC [metoclopramide]
- substrate of human OCT1 [1]: substrate
- substrate of ABCG2 [2]: not a substrate
- P-gp inhibitor status [3]: not a P-gp inhibitor
